Measured values published in patent US20230302104.

Protein sequences, listed by entry. Tags and fused reporters are not part of them.
plasma derived AAT (alpha1-antitrypsin, human plasma-extracted), P01009, UniProt P01009, whole entry, looked up: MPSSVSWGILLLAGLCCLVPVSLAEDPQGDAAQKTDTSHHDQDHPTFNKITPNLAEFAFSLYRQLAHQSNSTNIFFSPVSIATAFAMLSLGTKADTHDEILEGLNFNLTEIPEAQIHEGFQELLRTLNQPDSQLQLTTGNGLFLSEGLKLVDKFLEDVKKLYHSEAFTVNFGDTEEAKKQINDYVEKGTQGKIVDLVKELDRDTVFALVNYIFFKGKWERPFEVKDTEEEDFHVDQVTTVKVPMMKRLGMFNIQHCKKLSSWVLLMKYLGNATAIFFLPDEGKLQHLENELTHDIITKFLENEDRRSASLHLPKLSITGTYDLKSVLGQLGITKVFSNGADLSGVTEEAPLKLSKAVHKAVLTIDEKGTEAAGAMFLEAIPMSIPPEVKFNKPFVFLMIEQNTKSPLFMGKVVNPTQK

Target: plasma derived AAT (alpha1-antitrypsin, human plasma-extracted), P01009

B1: purified human neutrophil elastase (ELA2) (protein)
chain: IVGGRRARPHAWPFMVSLQLRGGHFCGATLIAPNFVMSAAHCVANVNVRAVRVVLGAHNLSRREPTRQVFAVQRIFENGYDPVNLLNDIVILQLNGSATINANVQVAQLPAQGRRLGNGVQCLAMGWGLLGRNRGIASVLQELNVTVVTSLCRRSNVCTLVRGRQAGVCFGDSGSPLVCNGLIHGIASFVRGGCASGLYPDAFAPVAQFVNWIDSIIQ
- neutrophil elastase protease activity, MeOSuc-AAPV-pNA substrate assay (Vmax, % of untreated); AAT at 1 nM and 10 nM: AAT and rhAAT inhibits neutrophil elastase protease activity
